Data on three molecules can be found in patent US9428501B2, “Bicyclic nitrogen-containing aromatic heterocyclic amide compound” (ASTELLAS PHARMA INC., priority 2013, dated 2016).

Amino acid sequences for entries named in this document (tags omitted). Residues count along the entry.
UniProt O75251, 39-213 limits assumed: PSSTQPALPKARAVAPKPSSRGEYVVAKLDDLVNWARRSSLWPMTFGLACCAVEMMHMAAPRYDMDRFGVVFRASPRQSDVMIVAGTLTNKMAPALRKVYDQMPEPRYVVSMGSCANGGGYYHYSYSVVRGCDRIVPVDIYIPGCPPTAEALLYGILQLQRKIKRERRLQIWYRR
UniProt O75306, 34-463 limits assumed: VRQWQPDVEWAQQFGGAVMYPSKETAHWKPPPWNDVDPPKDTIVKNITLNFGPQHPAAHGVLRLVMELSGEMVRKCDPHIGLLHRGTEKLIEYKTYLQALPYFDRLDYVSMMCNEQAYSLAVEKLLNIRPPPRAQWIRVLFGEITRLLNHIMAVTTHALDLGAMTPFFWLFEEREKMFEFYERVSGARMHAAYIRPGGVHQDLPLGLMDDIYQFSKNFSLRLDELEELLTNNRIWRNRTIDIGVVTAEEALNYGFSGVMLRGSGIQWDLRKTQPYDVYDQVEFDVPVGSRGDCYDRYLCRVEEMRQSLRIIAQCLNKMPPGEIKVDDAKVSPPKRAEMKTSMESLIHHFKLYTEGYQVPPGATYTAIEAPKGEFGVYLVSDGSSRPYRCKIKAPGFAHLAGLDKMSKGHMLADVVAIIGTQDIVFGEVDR
UniProt P03886, whole entry: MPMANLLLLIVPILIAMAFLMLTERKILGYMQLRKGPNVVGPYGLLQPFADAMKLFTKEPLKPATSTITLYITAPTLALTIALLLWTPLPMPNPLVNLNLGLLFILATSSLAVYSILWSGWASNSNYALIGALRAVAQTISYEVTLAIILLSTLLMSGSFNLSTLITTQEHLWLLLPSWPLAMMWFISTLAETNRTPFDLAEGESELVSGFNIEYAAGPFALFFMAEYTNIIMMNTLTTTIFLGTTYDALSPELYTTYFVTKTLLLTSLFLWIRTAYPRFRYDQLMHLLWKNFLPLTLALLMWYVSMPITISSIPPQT

Assay [1] deals with human PIK3CA mutation-positive breast cancer cell line MDA-MB-453 cells. The experiment in a line: Scaffold independent cell proliferation inhibitory effect, MDA-MB-453 cells. The settings on record: 96 h, non-adhesive plate, 4 days, CellTiter-Glo, read-out: IC50 (cell proliferation inhibition). In kind it is cell-based. Here is the method:
The effect on proliferation of cancer cells of the test compound was evaluated.
Measurement (colony method) of the scaffold independent cell proliferation is known as a system in which the anti-cancer effect of the test compound is examined. As a method for measuring cell-non-adhesive proliferation substituting the colony method, there is a method of using a non-adhesive plate as follows.
Thereafter, the cells were cultured for 4 days at 37° C. in the absence of CO2, and a cytometric reagent (CellTiter-Glo Luminescent Cell Viability assay manufactured by Promega Corporation) was added. The resultant product was stirred for 30 minutes, and then measurement was carried out using a luminescence measurement apparatus (ARVO manufactured by Perkin Elmer Inc.).

For assay [2], the target named is human mitochondrial Complex I (Homo sapiens, UniProt O75251+O75306+P03886). In kind it is biochemical. The conditions noted are these: mitochondria from MDA-MB-453 tumor, absorbance 600 nm, 37° C.; read-out: IC50 (Complex I inhibition). As to the method:
Mitochondria was extracted from MDA-MB-453 tumor, and the Complex I inhibitory activity of the test compound was evaluated.
Human PIK3CA mutation-positive breast cancer cell line MDA-MB-453 cells were subcutaneously implanted into nude mice, MDA-MB-453 tumor was excised, a mitochondria extraction solution (0.25 M Sucrose, 2 mM EDTA, 10 mM Tris/HCl pH 7.5) of 9 times of tumor weight was added thereto, and crushing was carried out thereon. The reaction mixture was centrifuged at 600×g and 4° C. for 10 minutes to obtain a supernatant, and the supernatant was centrifuged at 14000×g and 4° C. for 10 minutes, thereby obtaining a pellet. The pellet was suspended in 10 mM Tris/HCl pH 7.5 of 5 times of the excised tumor weight, thereby obtaining a human mitochondrial suspension.
Next, 25 μl of the human mitochondrial suspension per 1 ml of Complex I activity measurement solution (200 mM potassium phosphate pH 7.6, 0.35% Bovine Serum Albumin (BSA), 60 μM 2,6-dichlorophenol-indophenol, 70 μM decylubiquinone, 1 μM antimycin) was added. […] Further, NADH was added so as to have a final concentration of 0.2 mM, and a change in absorbance at a wavelength of 600 nm using SpectraMax (manufactured by Molecular Devices LLC) set to 37° C. in advance was measured. […]

Consider `COc1ccc(CN2CCC(c3ccc4nc(C(=O)N5CCN(Cc6ccc(C(F)(F)F)cc6)CC5)n(C)c4c3)CC2)cn1` [Example 18], for which the IC50 in assay [1] amounted to 2.5 nM.
As to `COc1ccc(CN2CCC(c3ccc4nc(C(=O)N5CCN(Cc6ccc(C(F)(F)F)cc6)CC5)cn4c3)CC2)cn1` [Example 35], the values for the IC50 in assay [1] and in assay [2] were 5.2 nM and 1.8 nM, respectively.
For `COc1ccc(CN2CCC(n3cc4cc(C(=O)N5CCN(Cc6ccc(C(F)(F)F)cc6)CC5)ccc4n3)CC2)cn1` [Example 57], in that order: 0.65 nM and 12 nM.
